Earlier results on one substance are cited in US20080009517A1, “Use of nelfinavir as a radiation sensitizer” (The Trustees of the University of Pennsylvania, priority 2005, published 2008).

In the data set the test system is metastatic breast cancer. The following applies: first line of treatment in metastatic breast cancer; cited from earlier work.

Regarding “Trastuzumab: Trastuzumab (HERCEPTIN), first line of treatment in metastatic breast cancer”, the response rate is 25%.
